ChEMBL document CHEMBL1127046, “Antitumor agents. 3. Synthesis and biological activity of 4 beta-alkyl derivatives containing hydroxy, amino, and amido groups of 4'-O-demethyl-4-desoxypodophyllotoxin as antitumor agents” (J Med Chem, 1993)

Amino acid sequences for entries named in this document (tags omitted). A change or cut given only in a name is not applied to a line headed by its entry.
UniProt Q6B856: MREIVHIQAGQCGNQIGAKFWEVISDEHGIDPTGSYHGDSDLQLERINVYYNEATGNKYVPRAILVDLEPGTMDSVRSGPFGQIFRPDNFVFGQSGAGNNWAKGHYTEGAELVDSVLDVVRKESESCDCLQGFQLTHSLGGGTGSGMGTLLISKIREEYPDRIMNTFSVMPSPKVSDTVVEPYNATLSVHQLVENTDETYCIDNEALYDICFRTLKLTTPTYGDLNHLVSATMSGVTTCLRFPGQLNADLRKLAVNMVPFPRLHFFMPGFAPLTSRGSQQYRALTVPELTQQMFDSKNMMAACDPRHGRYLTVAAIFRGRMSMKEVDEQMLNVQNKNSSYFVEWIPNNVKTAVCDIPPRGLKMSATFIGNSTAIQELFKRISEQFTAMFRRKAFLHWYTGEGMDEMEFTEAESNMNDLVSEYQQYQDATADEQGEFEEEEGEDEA

Molecular target: Tubulin (Bos taurus, UniProt Q6B856+Q862L2+Q862F3)
Test: Drug concentration needed to produce a 50% reduction of bovine brain tubulin polymerization relative to the control
In short: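 Bovine brain tubulin, purified in MEM buffer (1 mM EGTA, 1 mM MgSO4, 5 mM NaH2PO4, 0.02% NaN3, pH 6.75) through one polymerization–depolymerization cycle and stored at -80 °C. Tubulin (200 µg protein) was polymerized in MEM buffer with 1 mM GTP for 15 min at 37 °C. Assembly was followed as turbidity at 350 nm in a temperature-controlled spectrophotometer.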

Q: COc1cc([C@@H]2c3cc4c(cc3[C@@H](O[C@@H]3O[C@@H]5CO[C@@H](C)O[C@H]5[C@H](O)[C@H]3O)[C@H]3COC(=O)[C@H]23)OCO4)cc(OC)c1O [ETOPOSIDE] was tested. Which IC50 did it give?
A: > 60 µM
